How the values were obtained:
recombinant OPA enzyme = recombinant OPA enzyme (Brevundimonas diminuta, UniProt P0A434); experiment: Kinetic constants for the hydrolysis of organophosphorus insecticides (substrate specificity); conditions: for Km: pH 9, 100 mM CHES buffer, 10% methanol; for (V/K)ref / Vref: pH 9, 100 mM CHES, paraoxon = 100
Drosophila melanogaster = experiment: Fly bioassay: pesticide-impregnated filters with or without crude enzyme; conditions: overnight
fall army worms = experiment: Mortality versus amount of paraoxon applied to caterpillars

Molecule: O,O-dimethyl-p-cyanophenyl phosphorothioate
- Km (recombinant OPA enzyme): 2100 µM
- (V/K)ref (recombinant OPA enzyme): 0.32
- Vref (recombinant OPA enzyme): 7.5

Molecule: CCOP(=S)(OCC)Oc1nc(Cl)c(Cl)cc1Cl
- Km (recombinant OPA enzyme): 110 µM
- (V/K)ref (recombinant OPA enzyme): 0.07
- Vref (recombinant OPA enzyme): 0.08

Molecule: O,O-diethyl [p-(methylsulfinyl) phenyl] phosphorothioate
- Km (recombinant OPA enzyme): 460 µM
- (V/K)ref (recombinant OPA enzyme): 0.63
- Vref (recombinant OPA enzyme): 3.2

Molecule: CCOP(=S)(OCC)Oc1ccc([N+](=O)[O-])cc1
- Percent survival (Drosophila melanogaster; pesticide 1.2 μg, crude enzyme 0 mg): no fly survived
- Percent survival (Drosophila melanogaster; pesticide 1.2 μg, crude enzyme 0 mg, listed as Parathion): 0%
- Percent survival (Drosophila melanogaster; pesticide 1.2 μg, crude enzyme 0.87 mg): 100%
- Percent survival (Drosophila melanogaster; pesticide 12.4 μg, crude enzyme 0 mg): 0%
- Percent survival (Drosophila melanogaster; pesticide 12.4 μg, crude enzyme 0.87 mg): 100%
- Percent survival (Drosophila melanogaster; pesticide 41.1 μg, crude enzyme 0 mg): 0%
- Percent survival (Drosophila melanogaster; pesticide 41.1 μg, crude enzyme 0.87 mg): 100%
- Percent survival (Drosophila melanogaster; pesticide 82.6 μg, crude enzyme 0 mg): 0%
- Percent survival (Drosophila melanogaster; pesticide 82.6 μg, crude enzyme 0.87 mg): 50%
- Percent survival (Drosophila melanogaster; pesticide 82.6 μg, crude enzyme 1.74 mg): 100%
- Percent survival (Drosophila melanogaster; pesticide 124 μg, crude enzyme 0.87 mg): 0%
- Km (recombinant OPA enzyme): 240 µM
- (V/K)ref (recombinant OPA enzyme): 11.25
- Vref (recombinant OPA enzyme): 30

Molecule: CNC(=O)O/N=C/C(C)(C)SC
- Percent survival (Drosophila melanogaster; pesticide 9.5 μg, crude enzyme 0 mg): 0%
- Percent survival (Drosophila melanogaster; pesticide 9.5 μg, crude enzyme 0.87 mg): 0%

Molecule: COP(=S)(OC)Oc1ccc(SC)c(C)c1
- Percent survival (Drosophila melanogaster; pesticide 1.5 μg, crude enzyme 0 mg): 0%
- Percent survival (Drosophila melanogaster; pesticide 1.5 μg, crude enzyme 0.87 mg): 0%
- Percent survival (Drosophila melanogaster; pesticide 7.7 μg, crude enzyme 0 mg): 0%
- Percent survival (Drosophila melanogaster; pesticide 7.7 μg, crude enzyme 0.87 mg): 0%
- Percent survival (Drosophila melanogaster; pesticide 46.0 μg, crude enzyme 0 mg): 0%
- Percent survival (Drosophila melanogaster; pesticide 46.0 μg, crude enzyme 0.87 mg): 0%

Molecule: O,O-diethyl-O-[2-isopropyl-4-methyl-6-pyrimidyl] phosphorothioate
- Percent survival (Drosophila melanogaster; pesticide 11.0 μg, crude enzyme 0 mg): 0%
- Percent survival (Drosophila melanogaster; pesticide 11.0 μg, crude enzyme 0.87 mg): 100%
- Percent survival (Drosophila melanogaster; pesticide 22.0 μg, crude enzyme 0 mg): 0%
- Percent survival (Drosophila melanogaster; pesticide 22.0 μg, crude enzyme 0.87 mg): 100%
- Km (recombinant OPA enzyme): 450 µM
- (V/K)ref (recombinant OPA enzyme): 1.68
- Vref (recombinant OPA enzyme): 8.4

Molecule: CP(C)(=S)Oc1ccc([N+](=O)[O-])cc1
- Km (recombinant OPA enzyme): 840 µM
- (V/K)ref (recombinant OPA enzyme): 0.26
- Vref (recombinant OPA enzyme): 2.4

Molecule: CNC(=O)Oc1cccc2c1OC(C)(C)C2
- Percent survival (Drosophila melanogaster; pesticide 1.0 μg, crude enzyme 0 mg): 100%
- Percent survival (Drosophila melanogaster; pesticide 1.0 μg, crude enzyme 0.87 mg): 100%
- Percent survival (Drosophila melanogaster; pesticide 7.6 μg, crude enzyme 0 mg): 20%
- Percent survival (Drosophila melanogaster; pesticide 7.6 μg, crude enzyme 0.87 mg): 10%
- Percent survival (Drosophila melanogaster; pesticide 11.5 μg, crude enzyme 0 mg): 0%
- Percent survival (Drosophila melanogaster; pesticide 11.5 μg, crude enzyme 0.87 mg): 0%
- Percent survival (Drosophila melanogaster; pesticide 22.9 μg, crude enzyme 0 mg): 0%
- Percent survival (Drosophila melanogaster; pesticide 22.9 μg, crude enzyme 0.87 mg): 0%

Molecule: CCOP(=O)(OCC)Oc1ccc([N+](=O)[O-])cc1
- LD50 (fall army worms; control group (mixture of uninfected and pAC311 infected caterpillars)): 9 µg
- factor of increase of the lethal dose (fall army worms; infected versus control caterpillars, due to presence of the opd gene): at least 220
- LD50 (fall army worms; moth stage): 1 µg
- LD50 (fall army worms; pV941-29 infected caterpillars): 2000 μ
- (V/K)ref (recombinant OPA enzyme): 100
- Vref (recombinant OPA enzyme): 100

Molecule: O,O-diethyl-O-[3-chloro-4-methyl-2-oxo-2H-lbenzopyran-7-yl]phosphorothioate
- Km (recombinant OPA enzyme): 390 µM
- (V/K)ref (recombinant OPA enzyme): 6.70
- Vref (recombinant OPA enzyme): 29

Reference: patent US20080206834A1, “RECOMBINANT ORGANOPHOSPHOROUS ACID ANHYDRASE AND METHODS OF USE” (published 2008)
